# Binding of CDR-mutated scFvs to a peptide of the spike HR2 region

All variants were tested on one target, the spike HR2 peptide PDVDLGDISGINAS (SARS-CoV-2).

Parent: Ab-14, a human scFv built as VH, the linker GGGGSGGGGSGGGGS, VL. Only the CDRs of the light chain vary.
VH: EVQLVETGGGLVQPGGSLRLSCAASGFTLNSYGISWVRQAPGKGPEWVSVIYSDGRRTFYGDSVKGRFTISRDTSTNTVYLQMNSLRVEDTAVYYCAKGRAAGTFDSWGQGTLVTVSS
VL: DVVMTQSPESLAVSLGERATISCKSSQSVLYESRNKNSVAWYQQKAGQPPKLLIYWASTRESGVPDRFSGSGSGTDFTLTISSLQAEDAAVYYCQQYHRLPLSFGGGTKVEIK

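The starting antibody came from a phage panning campaign against this peptide. AAYL50 was designed without a model: most single CDR substitutions and a random sample of double and triple ones. In AlphaSeq, yeast of one mating type display the scFv and yeast of the other type display the target. The frequency of each diploid, read from paired DNA barcodes, reflects how well the two displayed proteins bind. Read counts were normalised to the haploid input and turned into Kd by a linear fit to BCL2-family pairs of known affinity, for each replicate. Mating was done three times.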

Changes read parent residue, position, new residue, counted from the first residue of the VL shown.
Values are log10 of the apparent Kd in nM; lower means stronger binding.
The mean shown is taken over the replicates in which the pair was detected.
"n.d." means that the variant was in the library but no mating with the target was seen in that replicate; the authors take this as a sign of poor binding, and no number exists.
Entries are sorted by rising average, undetected variants last.
Background: pairings of library AAYL50 with three empty control strains gave a value in 18% of cases (median 4.19, 5th percentile 2.99). Values in that range, when seen in few replicates, are hard to tell from nonspecific mating. The control count says in how many pairings with the empty strains this scFv gave a signal, with their mean in brackets.

changes,"log10 Kd, replicates","log10 Kd (nM), mean",control signals
N35A W56A Y97Q,-0.47 0.10 -0.46,-0.28,0/9
S25I R34L H98M,0.12 0.34 0.24,0.24,4/9 (3.88)
S25C W56K T59C,0.35 0.36 0.62,0.44,0/9
L30T R34E Q95S,0.32 0.66 0.53,0.50,4/9 (4.57)
S25Q E61Y,0.61 0.91 0.87,0.80,0/9
E32N K36W Y97W,0.82 1.08 0.91,0.94,2/9 (3.66)
S28K R34Y L100A,0.73 1.11 0.98,0.94,3/9 (3.69)
Q96C L100F,n.d. 1.14 n.d.,1.14,0/9
S62P Q95L H98A,1.05 1.28 1.14,1.16,1/9 (3.29)
Q27N S33T R34I,1.00 1.43 1.15,1.19,1/9 (4.54)
W56H P101Y L102P,1.24 1.14 1.40,1.26,1/9 (3.62)
S38C H98F,1.62 1.42 1.52,1.52,2/9 (3.84)
S33K N37S S62V,1.38 1.56 2.28,1.74,0/9
S33N N37L,1.58 1.97 1.83,1.79,2/9 (3.83)
T59H E61G H98I,1.62 1.93 1.90,1.82,0/9
S28R R34Y N37K,1.74 2.34 2.47,2.19,0/9
S25D S58Q H98K,2.25 2.48 2.24,2.32,3/9 (3.87)
S38M H98W R99L,2.22 2.46 2.48,2.39,1/9 (4.49)
Y31F W56T Q96M,2.01 2.53 2.69,2.41,2/9 (4.11)
S26G V29Y,2.88 2.14 2.38,2.47,3/9 (3.91)
E32R H98Q,n.d. n.d. 2.54,2.54,0/9
A57V T59H L102I,2.24 4.17 n.d.,3.21,2/9 (3.80)

Further variants, results first:

"log10 Kd, replicates","log10 Kd (nM), mean",control signals,changes
3.97 3.01 2.80,3.26,1/9 (2.72),N37L H98K L102I
3.29 3.61 3.79,3.56,0/9,S26R K36C S58P
n.d. n.d. 3.67,3.67,0/9,S58W T59R
n.d. n.d. 3.78,3.78,3/9 (3.33),K24T K36T R60N
4.70 2.74 4.69,4.05,1/9 (3.29),E32M S58I Q95T
3.91 4.87 5.49,4.76,4/9 (3.52),Y31C R99A L100T
5.61 4.13 5.04,4.93,4/9 (4.87),V39C R99T L102Q
n.d. n.d. 5.05,5.05,3/9 (4.60),L30H Y97L L100A
n.d. 4.21 6.41,5.31,3/9 (4.53),N35F R60W L102G
n.d. 5.35 6.06,5.71,3/9 (4.02),S58C E61A P101R
n.d. n.d. n.d.,n.d.,1/9 (3.18),Y31P A57D Y97C
n.d. n.d. n.d.,n.d.,3/9 (3.46),V39H R60D E61L
n.d. n.d. n.d.,n.d.,1/9 (2.32),K24W L30I V39P
n.d. n.d. n.d.,n.d.,0/9,S26V T59Q E61A
n.d. n.d. n.d.,n.d.,1/9 (3.76),Q27R A40I W56V
n.d. n.d. n.d.,n.d.,0/9,A40I Q95I L100Q
n.d. n.d. n.d.,n.d.,2/9 (4.07),Q27T A40V T59C
n.d. n.d. n.d.,n.d.,0/9,S26W Q27K V39E
n.d. n.d. n.d.,n.d.,0/9,N37L T59W Q95R
n.d. n.d. n.d.,n.d.,4/9 (5.01),S38L A57H Q96P
n.d. n.d. n.d.,n.d.,0/9,N35T A57N
n.d. n.d. n.d.,n.d.,1/9 (2.66),S26M S33C S103T

Excerpt, the final 5 entries:

changes,"log10 Kd, replicates","log10 Kd (nM), mean",control signals
S26W Q27K V39E,n.d. n.d. n.d.,n.d.,0/9
N37L T59W Q95R,n.d. n.d. n.d.,n.d.,0/9
S38L A57H Q96P,n.d. n.d. n.d.,n.d.,4/9 (5.01)
N35T A57N,n.d. n.d. n.d.,n.d.,0/9
S26M S33C S103T,n.d. n.d. n.d.,n.d.,1/9 (2.66)

The measurements come from Engelhart et al. 2022 (doi:10.1038/s41597-022-01779-4) through the FLAb antibody collection.